Laboratory results from patent publication US12173007B2, “Imidazopyridazine IL-17 inhibitor compounds” (Janssen Pharmaceutica NV, priority 2021, dated 2024).

Chains of the proteins cited; added tags and fusions are not shown. A line that says so, or that is headed by a name, gives the form on record, which may keep a tag or linker. Residues count along the entry.
UniProt Q16552, 24-154 with tags or gaps K93Q: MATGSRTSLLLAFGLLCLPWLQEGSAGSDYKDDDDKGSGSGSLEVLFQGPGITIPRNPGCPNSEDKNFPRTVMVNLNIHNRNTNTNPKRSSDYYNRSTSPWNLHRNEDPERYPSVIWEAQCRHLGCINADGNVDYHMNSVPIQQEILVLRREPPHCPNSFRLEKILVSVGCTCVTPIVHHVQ

How the values were obtained:
[1] = molecular target: T1, IL-17A(FLAG-Tagged): IL-17RA(His-Tagged) binding (Homo sapiens, UniProt Q16552, K93Q); test: IL-17A(FLAG-tagged):IL-17RA(His-tagged) binding disruption Eu-HTRF assay, Protocol 1; details: read-out: HTRF IC50 Protocol 1; FLAG-IL-17A 2.5 nM; average if tested more than once
Description: (§1) IL-17A(FLAG-Tagged): IL-17RA(His-Tagged) Binding Disruption Eu-HTRF Assay
(§2) An antibody directed against the FLAG tag of IL-17A (SEQ ID NO: 1) is labeled with the HTRF donor chromophore (Europium-cryptate). IL-17A is present as a dimer that is “locked into” this quaternary structure due to the formation of loop-spanning […] disulfide bridges. The construct of IL-17RA used in the assay excludes the […] portion of the receptor and is fused to a C-terminal 10×His tag (SEQ ID NO:2). An antibody directed against the His tag of the IL-17RA chimera is labeled with the HTRF acceptor chromophore (“D2”). The fluorescence-resonance energy transfer (FRET) depends on the vicinity of the donor chromophore to the acceptor, and interruption of the binding between the IL-17A and IL-17RA causes the reduction/loss of FRET. Therefore, this assay allows to evaluate the compound effect on the binding IL-17A and IL-17RA by monitoring the fluorescence intensity of donor vs acceptor. The assay was run using either Protocol 1 or Protocol 2 as described below.
Protocol 1. 40 nl of 2-fold serial diluted compound solution for total 22 dilution points is added into each well of a 1536-well, white, low-volume, non-binding plate (Greiner #782904), then 2 μl of FLAG tagged IL-17A at 2×final concentration (2.5 nM) in solution of PBS+0.01% Triton-X100 is added to each well. The assay plate is briefly centrifuged then incubated for 1 h at rt. A mixed solution is prepared containing 2×5 nM 10HIS×IL-17RA, 2×2.5 nM Eu-anti-FLAG (CISBIO), 2×5 nM D2-anti-HIS (CISBIO) in PBS+0.01% Triton-X100+200 mM Potassium Fluoride (Sigma 60238) and 2 μl of mix is added to each well of the assay plate. The plate is briefly centrifuged then incubated for 2 h at rt. The HTRF intensities at the wavelength of donor (620 nm) and acceptor (665 nm) are measured using BMG Pherastar. The ratio between intensities at two wavelengths is calculated and plotted against the compound concentration and the data is fitted to a one-site competition model to yield IC50 of the compound.

[2] = test system: IL-17A-induced G-CSF production in human normal keratinocyte (NHK); test: NHK assay: IL-17A-induced G-CSF production in normal human keratinocytes; details: read-out: NHK IC50; IL-17A 5 ng/mL, 24 h, G-CSF by HTRF; average if tested more than once
Method: IL-17A acts directly on keratinocytes through binding to dimeric receptor IL-17RA/RC and drives the production of a number of inflammatory mediators known to be elevated in psoriasis lesional tissue. IL-17A small molecule inhibitors that block the IL-17A to interact with IL-17R would inhibit the IL-17A signaling in its targeted cells such as keratinocytes. The compound functional activity is evaluated for its impact on IL-17A-induced G-CSF production in human normal keratinocyte (NHK).
Adult normal human keratinocytes are cultured in keratinocyte growth medium (Lonza) in a flask till reaching ˜90% confluence, then cells are transferred to a 384-well plate at density of 3000-4000 cell/well. Recombinant human IL-17A (Gibco PHC9174) is pre-incubated with titrated compound or DMSO for 1 h at rt then added to the cell culture plate. The final concentration of IL-17A is 5 ng/mL and DMSO is 0.2%, in the culture containing 5% FBS. Cells are cultured/treated for 24 h at 37° C. Supernatants are collected and G-CSF production is measured through HTRF technology using Human G-CSF Kit (CisBio). G-CSF concentration was extrapolated from the standard curve and IC50 is determined using GraphPad Prism. Cell viability is also evaluated using CellTiter-Glo kit (Promega) and effect of compound on cell viability is compared to DMSO control.

[3] = molecular target: T1, IL-17A(FLAG-Tagged): IL-17RA(His-Tagged) binding; test: IL-17A(FLAG-tagged):IL-17RA(His-tagged) binding disruption Eu-HTRF assay, Protocol 2; details: read-out: HTRF IC50 Protocol 2; FLAG-IL-17A 1 nM; average if tested more than once
Description: as §1, §2
Protocol 2. […] The HTRF intensities at the wavelength of donor (615 nm) and acceptor (665 nm) are measured using BMG Pherastar. The ratio between intensities at two wavelengths is calculated and plotted against the compound concentration and the data is fitted to a one-site competition model to yield IC50 of the compound.

SMILES | IC50 [1] [nM] | IC50 [2] [nM] | IC50 [3] [nM]
CC(C)n1nccc1C(=O)N[C@H](c1cn2ncc(CN3CC4C(CNC3=O)C4(F)F)cc2n1)C1CCC(F)(F)CC1 (some centres unmarked) | > 100 | < 50 | –
O=C(N[C@H](c1cn2ncc(CN3CC4C(CNC3=O)C4(F)F)cc2n1)C1CCC(F)(F)CC1)c1nonc1C1CC1 (single isomer, unassigned) [Example 3] | < 50 | < 50 | –
O=C(N[C@H](c1cn2ncc(CN3CC4C(CNC3=O)C4(F)F)cc2n1)C1CCC(F)(F)CC1)c1nonc1C1CC1 (single isomer, unassigned) [Example 4] | 50 to 100 | > 100 | –
Cc1nonc1C(=O)N[C@H](c1cn2ncc(CN3CC4C(CNC3=O)C4(F)F)cc2n1)C1CCC(F)(F)CC1 (single isomer, unassigned) [Example 100] | > 100 | > 100 | –
Cc1nonc1C(=O)N[C@H](c1cn2ncc(CN3CC4C(CNC3=O)C4(F)F)cc2n1)C1CCC(F)(F)CC1 (single isomer, unassigned) [Example 101] | < 50 | < 50 | –
COC[C@H](c1cnn2cc([C@@H](NC(=O)c3nonc3C)C3CCC(F)(F)CC3)nc2c1)N1CC2C(CNC1=O)C2(F)F (single isomer, unassigned) [Example 104] | – | < 50 | < 50
COC[C@H](c1cnn2cc([C@@H](NC(=O)c3nonc3C)C3CCC(F)(F)CC3)nc2c1)N1CC2C(CNC1=O)C2(F)F (single isomer, unassigned) [Example 105] | – | > 100 | > 100
